# Laboratory results reported in publication PMC9139002, “Naphthoquinone as a New Chemical Scaffold for Leishmanicidal Inhibitors of Leishmania GSK-3” (Biomedicines, 2022).
# Test system: mouse peritoneal macrophages (MPM)
# Assay: Cytotoxicity on mouse peritoneal macrophages (MTT reduction)
# Format: cell-based
# Settings: read-out: MPM IC50
# Procedure: Leishmania parasites were collected at late exponential growth phase by centrifugation at 1610× g at 4 °C. Elicited mouse peritoneal macrophages (MPM) were obtained from 8-week-old Balb/c mice through i.p. injection with 1 mL of 10% thioglycolate medium 72 h before extraction. Macrophages were obtained by peritoneal washing (10 mL PBS, 4 °C).
# Both activities were assessed by inhibition of MTT (3-(4,5-dimethylthiazol-2-yl)-2,5-diphenyltetrazolium bromide) reduction, as described in [34]. Samples were made in triplicate and assays were repeated at least twice. DMSO content in the medium was adjusted to 0.25% v/v (final concentration), regardless of the final concentration of the drug, and for the control, the untreated parasites. ICx (inhibitory concentration that inhibits parasite growth or enzymatic activity by x%) was calculated using the statistical module of SigmaPlot v11.0 software.
compound,measurement,value
CCCCCCCC(=O)NNC(=O)c1c(O)c2ccccc2n(C)c1=O,IC50,> 25 µM
